Laboratory results published in patent US20170320967A1.

Each substance was assayed against recombinant human TNFα (human) (UniProt P01375) (assay: SPR (Biacore), captured antibody, TNFα as analyte).
“Binding Protein 10, (anti-IL13 × anti-IL4) × anti-TNFα (from UniProt P0DOX5 2-448) (other; other documents disagree on this pair)” gave a Kd of 2.07 nM, a koff of 0.00029 s⁻¹ and a kon of 140000 M⁻¹ s⁻¹. Substance “Binding Protein 9, (anti-IL4 × anti-IL13) × anti-TNFα (from UniProt P0DOX5 2-448) (other; other documents disagree on this pair)” has a Kd of 2.42 nM, a koff of 0.00032 s⁻¹ and a kon of 132000 M⁻¹ s⁻¹. “Binding Protein 11, (anti-IL13 × anti-IL4) × anti-TNFα (from UniProt P0DOX5 2-448; P0DOX7 1-214) (other; other documents disagree on this pair)” showed a Kd of 0.541 nM, a koff of 0.000182 s⁻¹ and a kon of 336000 M⁻¹ s⁻¹.

The substances below were run against recombinant human TNFα (human) (UniProt P01375) (assay: cell-based or functional assay).
“Binding Protein 10, (anti-IL13 × anti-IL4) × anti-TNFα (from UniProt P0DOX5 2-448)” was tested, and the TNFα IC50 (HEK Blue Reporter Assay) was 0.0476 µg/mL. For “Binding Protein 9, (anti-IL4 × anti-IL13) × anti-TNFα (from UniProt P0DOX5 2-448)”, the TNFα IC50 (HEK Blue Reporter Assay) was 0.0395 µg/mL. Work on “Binding Protein 11, (anti-IL13 × anti-IL4) × anti-TNFα (from UniProt P0DOX5 2-448; P0DOX7 1-214)” yielded a TNFα IC50 (HEK Blue Reporter Assay) of 0.0265 µg/mL.
